Results from publication PMC2645672, “Mechanism of Neuronal versus Endothelial Cell Uptake of Alzheimer's Disease Amyloid β Protein” (PLoS ONE, 2009).

How the values were obtained:
[1] = test system: differentiated PC12 cells; test: Cellular uptake by flow cytometry in differentiated PC12 cells; details: 15 µg/ml F-Aβ40 and 20 µg/ml AF633-Trf; for Uptake at 4°C versus 37°C (histograms of cellular fluorescence): 30 min, cells trypsinized, flow cytometry; for Uptake in ATP depleted cells versus normal cells (flow cytometry): 30 min pre-incubation with sodium azide and 50 mM 2-deoxy-D-glucose in glucose free DMEM, 37°C
[2] = test system: wild type (WT) mouse brain slices, hippocampal neurons; test: Localization of F-Aβ40 and AF633-Trf in brain slices (laser confocal microscopy); details: 15 µg/ml F-Aβ40 and 20 µg/ml AF633-Trf in KRB, 30 min, acidified KRB wash

Substance	Uptake at 4°C versus 37°C (histograms of cellular fluorescence) [1]	Uptake in ATP depleted cells versus normal cells (flow cytometry) [1]	Signal toward the center of the neuronal cell body at 4°C versus 37°C [2]
AF633-Trf: Alexa Fluor 633 labeled transferrin, a clathrin mediated endocytosis marker [reference compound]	significantly lower	significantly impaired	decreased significantly
F-Aβ40: fluorescein labeled human Aβ40	not significantly different	significantly higher	not significantly affected
